From paper PMC4661386 (2015)

Experiments:
[1] = molecular target: T1, Recombinant human heavy chain 1 (rHC1) D298A mutant (human, UniProt P19827 35-672, D298A); test: SPR
T1 sequence: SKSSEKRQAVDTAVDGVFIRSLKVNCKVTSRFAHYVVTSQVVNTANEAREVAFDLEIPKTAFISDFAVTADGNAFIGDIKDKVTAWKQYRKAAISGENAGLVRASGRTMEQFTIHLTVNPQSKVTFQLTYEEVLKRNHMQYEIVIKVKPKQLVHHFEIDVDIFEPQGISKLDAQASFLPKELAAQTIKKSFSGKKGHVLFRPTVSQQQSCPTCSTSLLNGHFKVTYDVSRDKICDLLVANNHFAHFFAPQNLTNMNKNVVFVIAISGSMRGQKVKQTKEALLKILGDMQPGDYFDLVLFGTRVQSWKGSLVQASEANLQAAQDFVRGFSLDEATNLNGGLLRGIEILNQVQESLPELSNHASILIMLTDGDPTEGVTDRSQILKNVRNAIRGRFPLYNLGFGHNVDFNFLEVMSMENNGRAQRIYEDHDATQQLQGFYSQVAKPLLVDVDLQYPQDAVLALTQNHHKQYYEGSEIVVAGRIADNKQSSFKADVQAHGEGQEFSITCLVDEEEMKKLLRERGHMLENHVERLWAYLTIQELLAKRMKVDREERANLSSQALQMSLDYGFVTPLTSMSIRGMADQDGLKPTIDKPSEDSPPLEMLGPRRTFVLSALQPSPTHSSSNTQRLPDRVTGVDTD

[2] = molecular target: T2, Recombinant human heavy chain 1 (rHC1) of inter-alpha-inhibitor, wild type (human, UniProt P19827 35-672); test: SPR
T2 chain: T1 sequence with A264D

[3] = molecular target: T1, Recombinant human heavy chain 1 (rHC1) …; test: SPR; remark: listed apart in the source
[4] = molecular target: T2, Recombinant human heavy chain 1 (rHC1) …; test: SPR
[5] = molecular target: T1, Recombinant human heavy chain 1 (rHC1) …; test: SPR; + 10 mM EDTA
[6] = molecular target: T1, Recombinant human heavy chain 1 (rHC1) …; test: SPR; + 10 mM EDTA; remark: listed apart in the source

B1: Link_TSG6 (recombinant Link module from human TSG-6) (domain or fragment)
chain: GVYHREARSGKYKLTYAEAKAVCEFEGGHLATYKQLEAARKIGFHVCAAGWMAKGRVGYPIVKPGPNCGFGKTGIIDYGIRLNRSERWDAYCYNPHAK
Kd [1]: 2.8 nM | Kd [2]: 2.6 nM | koff [3]: 0.0014 s⁻¹ | koff [4]: 0.0014 s⁻¹

B2: Full-length human TSG-6 (rhTSG-6), wild type (natural protein)
chain: WGFKDGIFHNSIWLERAAGVYHREARSGKYKLTYAEAKAVCEFEGGHLATYKQLEAARKIGFHVCAAGWMAKGRVGYPIVKPGPNCGFGKTGIIDYGIRLNRSERWDAYCYNPHAKECGGVFTDPKQIFKSPGFPNEYEDNQICYWHIRLKYGQRIHLSFLDFDLEDDPGCLADYVEIYDSYDDVHGFVGRYCGDELPDDIISTGNVMTLKFLSDASVTAGGFQIKYVAMDPVSKSSQGKNTSTTSTGNKNFLAGRFSHL
Kd [5]: 4.4 nM | koff [6]: 0.003 s⁻¹

Positions count from the first letter of the chain named.
